Experimental data reported in ChEMBL document CHEMBL1140432, “Synthesis and biological evaluation of a novel series of "ortho-nitrated" inhibitors of catechol-O-methyltransferase” (J Med Chem, 2005).

Molecular target: T1, Catechol O-methyltransferase (Rattus norvegicus, UniProt P22734)
T1 sequence (P22734 whole entry): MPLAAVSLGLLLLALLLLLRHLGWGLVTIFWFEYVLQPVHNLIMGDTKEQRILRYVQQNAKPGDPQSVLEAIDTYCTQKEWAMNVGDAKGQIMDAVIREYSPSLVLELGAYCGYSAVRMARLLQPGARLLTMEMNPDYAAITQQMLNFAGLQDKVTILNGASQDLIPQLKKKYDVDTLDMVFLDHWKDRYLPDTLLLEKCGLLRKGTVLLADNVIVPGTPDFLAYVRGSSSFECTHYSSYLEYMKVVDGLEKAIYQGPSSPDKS
Test: Inhibitory activity against COMT in rat brain
Format: tissue-based

O=C(Cc1ccccc1)c1cc(O)c(O)c([N+](=O)[O-])c1 [NEBICAPONE]
IC50: 3.7 nM
